# Apparent affinities of Ab-95 variants for a coronavirus HR2 peptide

Antigen: PDVDLGDISGINAS, a 14-residue peptide of the SARS-CoV-2 spike HR2 region.

The variants keep the heavy chain, the linker and the frameworks of Ab-95 (scFv order VH, the linker GGGGSGGGGSGGGGS, VL).
VH: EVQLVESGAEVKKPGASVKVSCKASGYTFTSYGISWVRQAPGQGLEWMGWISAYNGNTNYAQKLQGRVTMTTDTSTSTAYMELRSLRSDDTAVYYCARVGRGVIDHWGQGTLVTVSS
VL: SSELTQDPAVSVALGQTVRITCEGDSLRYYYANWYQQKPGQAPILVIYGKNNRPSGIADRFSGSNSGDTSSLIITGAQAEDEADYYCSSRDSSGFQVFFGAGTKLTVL

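The starting antibody came from a phage panning campaign against this peptide. Library AAYL52 holds single substitutions and randomly drawn double and triple substitutions in the CDRs. The scFvs were displayed on barcoded MATa yeast, the peptide on MATalpha yeast. The frequency of each diploid, read from paired DNA barcodes, reflects how well the two displayed proteins bind. Read counts were normalised to the haploid input and turned into Kd by a linear fit to BCL2-family pairs of known affinity, for each replicate. Each pool was mated in three replicate cultures.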

Positions count from residue 1 of the parent VL; Y31E puts E in place of Y. This list gathers variants with a substitution at S88 (VL, numbered from residue 1). Numbers give log10(Kd / nM), so 0 is 1 nM and 3 is 1 µM. Smaller is tighter. Replicates are averaged; those with no signal do not enter the mean. An entry "no signal" has no value in the source: the pair was not observed among the diploids in any replicate. This suggests poor binding but is not conclusive. Order: sorted from the lowest average up, undetected variants last. Three control strains display no target. For library AAYL52, 28% of the pairings with them gave a signal, with a median of 3.91 and one signal in twenty below 2.90, so weak values seen in few replicates may be background. The control count says in how many pairings with the empty strains this scFv gave a signal. For reference, the parent read 2.31 as the reference entry and 2.25 as a member of this library.

changes,mean log10 Kd (nM),replicates with signal,empty controls
Y31E/S88M,0.33,3 of 3,5 of 9
Y30N/K50H/S88M,0.46,3 of 3,5 of 9
Y29G/S88L/R90D,1.27,3 of 3,2 of 9
G49S/S88C/Q96P,1.42,3 of 3,4 of 9
E23Q/S88N/S92V,1.74,3 of 3,1 of 9
S88R/S92N/G94C,1.87,3 of 3,3 of 9
Y30V/A32Q/S88M,1.91,3 of 3,4 of 9
Y31T/S88M,1.99,3 of 3,0 of 9
S88K,2.14,3 of 3,3 of 9
G24S/S88G/F98L,2.27,1 of 3,0 of 9
S88L/Q96R,2.49,3 of 3,1 of 9
S88A/Q96M,2.69,3 of 3,3 of 9
N52E/S88L/V97G,2.90,3 of 3,2 of 9
R28Q/S88N/D91W,3.05,3 of 3,5 of 9
Y29H/Y31R/S88Q,3.06,3 of 3,2 of 9
D25H/P54D/S88D,3.30,2 of 3,5 of 9
E23N/K50C/S88R,3.32,3 of 3,5 of 9
S88D/F95L/V97H,3.36,1 of 3,5 of 9
N52M/S88Q,3.52,3 of 3,1 of 9
S88Y/S89Q/G94F,3.56,2 of 3,3 of 9
E23I/R28Q/S88V,3.58,3 of 3,4 of 9
S55D/S88E/F98T,3.63,3 of 3,4 of 9
D25V/Y29L/S88E,3.67,2 of 3,2 of 9
D25I/S88W/F95T,3.80,3 of 3,5 of 9
Y29R/S88I,3.86,1 of 3,7 of 9
E23L/A32C/S88F,3.98,3 of 3,4 of 9
S88D/V97R,4.01,2 of 3,4 of 9
L27G/S88K,4.07,2 of 3,3 of 9
K50L/S88C/D91Y,4.11,3 of 3,3 of 9
Y29F/S88W/S93P,4.12,3 of 3,3 of 9
R53M/S88P/S93N,4.18,1 of 3,0 of 9
N51S/P54T/S88R,4.28,1 of 3,2 of 9
K50W/N51H/S88E,4.35,3 of 3,5 of 9
S88V/S93L,4.38,2 of 3,5 of 9
D25I/S88M/R90F,4.59,1 of 3,3 of 9
L27C/N33T/S88G,5.06,2 of 3,4 of 9
R53T/S88K/S89G,5.37,2 of 3,4 of 9
L27S/Y31M/S88E,5.38,1 of 3,3 of 9
R28I/A32Y/S88N,5.45,1 of 3,2 of 9
S26V/S88T/S93K,no signal,0 of 3,2 of 9
R28V/A32L/S88V,no signal,0 of 3,3 of 9
N33W/S88C/V97M,no signal,0 of 3,0 of 9
E23Y/S55A/S88K,no signal,0 of 3,0 of 9
S88A/R90D/G94Q,no signal,0 of 3,1 of 9
G24N/S88V/R90Y,no signal,0 of 3,1 of 9
Y30K/S88Q/F95K,no signal,0 of 3,3 of 9
S88K/S89V/S92V,no signal,0 of 3,0 of 9
E23V/S88R,no signal,0 of 3,2 of 9
S55K/S88N/S89Q,no signal,0 of 3,0 of 9

The measurements come from Engelhart et al. 2022 (doi:10.1038/s41597-022-01779-4) through the FLAb antibody collection.